Measurements taken from PMC6274642, “Small molecule inhibitors reveal allosteric regulation of USP14 via steric blockade” (Cell Research, 2018).

Sequences of proteins named here, by UniProt entry; tags and fusion partners are left off. A change or cut given only in a name is not applied to a line headed by its entry.
UniProt P54578: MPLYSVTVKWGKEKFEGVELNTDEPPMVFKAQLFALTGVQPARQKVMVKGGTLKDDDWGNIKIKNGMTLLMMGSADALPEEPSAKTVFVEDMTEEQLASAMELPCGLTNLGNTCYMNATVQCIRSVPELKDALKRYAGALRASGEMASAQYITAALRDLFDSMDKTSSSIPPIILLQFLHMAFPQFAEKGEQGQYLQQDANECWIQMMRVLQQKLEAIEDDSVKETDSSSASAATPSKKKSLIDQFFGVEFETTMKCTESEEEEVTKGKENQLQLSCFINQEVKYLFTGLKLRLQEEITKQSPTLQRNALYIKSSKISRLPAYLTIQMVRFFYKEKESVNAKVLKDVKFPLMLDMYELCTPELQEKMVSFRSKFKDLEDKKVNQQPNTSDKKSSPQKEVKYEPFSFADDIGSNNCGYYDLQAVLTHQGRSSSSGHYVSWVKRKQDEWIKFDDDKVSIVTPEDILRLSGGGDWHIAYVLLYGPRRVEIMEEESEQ

Molecular target: T1, USP14 (Homo sapiens, UniProt P54578)
T1 construct: Glutathione S-transferase (GST)-tagged full-length USP14; GST (N); made in house
Assay: Kinetic analysis (Vm, Km) of Ub-AMC hydrolysis by USP14
Format: biochemical
Experimental: Menten plot of the concentration-dependence of Ub-AMC (1-48 μM) hydrolysis in the presence
The data were fit to a curve by nonlinear regression
(1 picture or pasted object on this page, not shown here)

Cc1cc(C(=O)CN2CCCC2)c(C)n1-c1ccc(F)cc1 [IU1]
Ki: 5 µM
